The values that follow come from patent publication US7928097B2, “Photoreactive compounds and compositions” (priority 2001, dated 2011).

What is called IC50 is the concentration needed to halve the response being measured.

For one data set, the system named is GG dinucleotide [d(GpG)]. Put plainly: Photoactivation and binding to GG dinucleotide. The note with it: 1 mM d(GpG), 457.9 nm, 20 mW, 60 minutes; NMR and mass spectrometry. On the procedure: In more detail irradiation was carried out using an argon-krypton ion laser (Coherent Innova 70C Spectrum) equipped with a fibre optic (FT-600-UMT, Ø (diameter) 600 μm; Elliot Scientific Ltd.) to deliver light (λ=457.9 nm, 488 nm, 647.1 nm) directly into the sample within the magnet of the NMR spectrometer. The laser output, after the fibre, was in the range of 10 to 75 mW, as measured by a Coherent 210 power meter. 1D ^1H and 2D [^1H,^15N] HSQC spectra were recorded on a Bruker DMX 500 NMR spectrometer (^1H 500.13 MHz, ^15N 50.7 MHz) at a pH value of 5 using sodium 3-(trimethylsilyl)propionate-2,2,3,3-d4 (TSP, 0 ppm) as internal δ (^1H) standard. When cis,trans-[Pt^IV(en)(N3)2(OH)2] was analysed in a similar way 2D [^1H,^15N] HSQC-TOCSY spectra were also recorded. All δ (^15N) were referenced externally to ^15NH4^+ at δ=0. pH values were measured with a pH-meter (Orion 710A) equipped with a microcombination electrode (Aldrich) calibrated with Aldrich standard buffers (pH 4, 7 and 10) and was adjusted with dilute solutions of HClO4 and NaOH. No correction was made for ^2H isotope effects on the glass electrode.
The procedure of example 8 was repeated with a solution containing 1 mM GG dinucleotide [d(GpG)]. […]

The nature of data set [1]: Stability in blood plasma (NMR). The note with it: 2 mg in 0.5 mls blood plasma, after 2 weeks.
Data set [2] can be described thus: Stability in aqueous solution (NMR). The note with it: 5 mM aqueous solution, after 2 months.
Data set [3] in a line: Stability in 0.1M aqueous NaCl (NMR). The note with it: 5 mM in 0.1M aqueous NaCl, after 2 days.
Data set [4] in a line: Stability in aqueous glutathione (NMR). The note with it: 2 mM in 5 mM aqueous glutathione, kept in the dark for 8 weeks.
Another data set relates to HaCaT. Nature of the data set: Phototoxicity, neutral red dye uptake, HaCaT cells. Format: cell-based. The protocol: (§1) 2×6 ft Cosmolux RA Plus (Cosmedico), 15500/100 W light sources were used, each filtered to attenuate UVB/UVC wavelengths. Irradiance was measured with a Waldmann PUMA meter, calibrated to the source using a double grating Spectroradiometer (Bentham, UK).
(§2) Immediately before use, the compounds were dissolved in warm Earle's Balanced Salt Solution (EBSS), sonicated and vortexed to assist dissolution. For experiments, cells were seeded at densities of 3- or 5×10^4 cells/cm^2. After overnight incubation, washed cells were incubated with test compounds in EBSS for 1 h at 310 K/5% CO2. Cells were then irradiated with 5 J cm^−2 glass filtered UVA (1.77 mW cm^−2: λmax 365 nm) for 50 min. Test compounds were removed and cells either prepared immediately for photogenotoxicity assays, or incubated with complete medium for 24 h before assessing phototoxicity. Control plates were treated identically to the test plates and sham irradiated.
(§3) Phototoxicity was monitored by measuring the uptake of neutral red dye into viable cells. Briefly, after irradiation cells were washed and then incubated with DMEM containing 5% FCS, 1% NEAA and 50 μg ml^−1 neutral red dye for 3 h at 310 K/5% CO2. […] Absorbance was read at 540 nm against a solubilisation solution as blank. […] Goodness of fit was determined from the R^2 values of the curves and 95% confidence intervals.

The test system of the next data set is A2780. Put plainly: Phototoxicity, neutral red dye uptake, A2780 cells. The format is cell-based. On the procedure:
as §1, §2, §3

In a further data set the test system is A2780CIS. Put plainly: Phototoxicity, neutral red dye uptake, A2780CIS cells. Format: cell-based. On the procedure:
as §1, §2, §3

Read-outs that look alike come from different tables or passages of the source.

Turning to Cis,trans,cis-[Pt^IV(N3)2(OH)2(NH3)2], the “Binding to GG dinucleotide after blue light irradiation” value in the data set with GG dinucleotide [d(GpG)] was “binding of species containing the cis-[Pt^II(NH3)2] moiety to GG had taken place”. Further, in data set [1], the “Stability in blood plasma (reduction product)” value is on record as “No sign of any reduction product was detected”. Further, the “Stability in aqueous solution (hydrolysis)” value in data set [2] was “No sign of any hydrolysis was detected”. In data set [3], the “Azide ligand substitution by chloride” value was “No evidence of any azide ligand substitution”. The Reduction by glutathione entry in data set [4] was “No evidence of any reduction”.

As for “Trans,trans,trans-[Pt(N3)2(OH)2(NH3)(2-bromo-3-methylpyridine)]”, the IC50 in the data set on HaCaT (read-out: IC50 Value HaCaT 365 nm, irradiated 5 J cm^-2 UVA, λmax 365 nm, 50 min, neutral red uptake after 24 h) stood at 59.2 µM; in the data set on HaCaT (read-out: IC50 Value HaCaT Dark, dark, sham irradiated control), 98.8 µM; with A2780 (read-out: IC50 Value A2780 365 nm, irradiated 5 J cm^-2 UVA, λmax 365 nm, 50 min, neutral red uptake after 24 h), 15.8 µM; in the data set with A2780 (read-out: IC50 Value A2780 Dark, dark, sham irradiated control) it was 31.3 µM; with A2780CIS (read-out: IC50 Value A2780CIS 365 nm, irradiated 5 J cm^-2 UVA, λmax 365 nm, 50 min, neutral red uptake after 24 h), 38.1 µM; in the data set on A2780CIS (read-out: IC50 Value A2780CIS Dark, dark, sham irradiated control) it was 54.4 µM.
